The assay deals with T1, HIF-2α (Homo sapiens, UniProt Q99814).
T1 construct: endogenous in cells; host or cells: 786-O cells stably expressing HRE-luciferase
In words: HRE-luciferase activity in stable HRE/luciferase-expressing 786-O cells. It counts as cell-based. The note with it: 786-0. As for the experimental part:
HRE, hypoxia-responsive element.
FIG. 5. […] PBS was used in CTL and compound C76 was used as a positive control. **, P<0.01, ****, P<0.0001. Student t test.
FIG. 7. Ethacridine is a potent HIF-α inhibitor. To validate the inhibitory effect of Ethacridine, stable 786-O cells expressing HRE-Luciferase was treated with Ethacridine at the indicated concentration for 24 h. Luciferase activity was then measured and normalized to control vehicle (DMSO) group. Ethacridine at 5 uM could inhibited approximately 80% HRE activity, i.e., HIF activity. Data are expressed as mean±SD. […]

Sequences of proteins named here, by UniProt entry; tags and fusion partners are left off. A change or cut given only in a name is not applied to a line headed by its entry.
UniProt Q99814: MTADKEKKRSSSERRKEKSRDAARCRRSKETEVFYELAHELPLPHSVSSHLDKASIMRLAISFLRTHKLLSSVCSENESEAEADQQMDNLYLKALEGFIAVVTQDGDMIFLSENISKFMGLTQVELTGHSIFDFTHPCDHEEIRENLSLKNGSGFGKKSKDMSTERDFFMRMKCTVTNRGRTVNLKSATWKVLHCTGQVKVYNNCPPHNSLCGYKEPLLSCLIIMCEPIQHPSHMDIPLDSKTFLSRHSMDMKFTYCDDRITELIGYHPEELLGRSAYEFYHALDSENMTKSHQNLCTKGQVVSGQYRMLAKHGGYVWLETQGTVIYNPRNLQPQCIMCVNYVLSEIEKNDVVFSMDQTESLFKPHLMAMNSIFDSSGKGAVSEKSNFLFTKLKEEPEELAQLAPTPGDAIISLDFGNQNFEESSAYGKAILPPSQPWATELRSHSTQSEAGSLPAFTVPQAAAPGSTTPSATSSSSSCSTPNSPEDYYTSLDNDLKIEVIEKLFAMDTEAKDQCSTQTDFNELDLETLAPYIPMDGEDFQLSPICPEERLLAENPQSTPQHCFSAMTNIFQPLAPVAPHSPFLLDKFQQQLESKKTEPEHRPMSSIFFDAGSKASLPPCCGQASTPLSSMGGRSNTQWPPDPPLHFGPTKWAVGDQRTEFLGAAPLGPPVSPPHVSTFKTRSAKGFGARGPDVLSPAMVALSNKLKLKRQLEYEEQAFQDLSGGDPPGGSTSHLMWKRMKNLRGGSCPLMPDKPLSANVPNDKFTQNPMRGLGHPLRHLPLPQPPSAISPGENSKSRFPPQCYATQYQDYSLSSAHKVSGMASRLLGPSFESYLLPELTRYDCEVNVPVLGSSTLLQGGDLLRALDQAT

Take `COc1cc([C@@H]2c3cc4c(cc3[C@@H](O[C@@H]3O[C@@H]5CO[C@@H](C)O[C@H]5[C@H](O)[C@H]3O)[C@H]3COC(=O)[C@H]23)OCO4)cc(OC)c1O` [Etoposide, (5S,5aR,8aR,9R)-5-[[(2R,4aR,6R,7R,8R,8aS)-7,8-dihydroxy-2-methyl-4,4a,6,7,8,8a-hexahydropyrano[3,2-d][1,3]dioxin-6-yl]oxy]-9-(4-hydroxy-3,5-dimethoxyphenyl)-5a,6,8a,9-tetrahydro-5H-[2]benzofuro[6,5-f][1,3]benzodioxol-8-one]: the inhibition – broadly, the relative decrease from the control value, in per cent – at 1.25 µM is 65 to 77%.

Source of the values: patent US20230310478A1, “METHODS AND COMPOSITIONS FOR THE TREATMENT OF PULMONARY HYPERTENSION AND CANCER” (Ann and Robert H. Lurie Children's Hospital of Chicago, priority 2020, published 2023).
